Data: PubChem BioAssay AID540248 (The Scripps Research Institute Molecular Screening Center, 2011)
The entries are a selection whose mix differs from that of the whole data set. The source made the active and inactive calls.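 The calls were made as follows: active = mean inhibition over three repeats above a set limit taken from the earlier primary screen (cut at about 37% in these data); inactive = the rest.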

What follows are molecules tested against Serine protease HTRA1 (Homo sapiens) (UniProt Q92743) (assay: HTRA1 protease inhibitors, retest, confirmation, biochemical, fluorescence polarization (AID 540248;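 also: 0% = HTRA1 with DMSO and 100% = wells lacking HTRA1; inhibitors block probe binding so polarization drops and inhibition rises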)). Conditions: recombinant HTRA1, FP-rhodamine activity-based probe, at 5.96 µM, stronger effect = higher value.

Structure (SMILES) | inhibition
C[N+]1=C2C=CC=CC=C2SC12C([N+](=O)[O-])=CC([N+](=O)[O-])=C[C-]2[N+](=O)[O-] (stereo unspecified) | active: 55%
O=[N+]([O-])c1cc([N+](=O)[O-])c(CCNc2ccccc2)c([N+](=O)[O-])c1 | inactive: 14.8%
CSc1ccc(Nc2c([N+](=O)[O-])cc([N+](=O)[O-])cc2[N+](=O)[O-])cc1 | inactive: 28.6%
Nc1cccc2c([As](=O)(O)O)cccc12 | inactive: 4.8%
Cc1ccc(NCCc2c([N+](=O)[O-])cc([N+](=O)[O-])cc2[N+](=O)[O-])cc1 | inactive: 20.1%
CN(C)C(=O)c1cc([N+](=O)[O-])cc2c1-c1c(cc([N+](=O)[O-])cc1[N+](=O)[O-])C2=O | active: 52.4%
